Screens (PubChem BioAssay)
Yeast UUG start-1: modulators of start codon recognition fidelity in yeast; AID 602363; hit rate 0.13% among 350,000; activity score, % at 18.7 µM; S. cerevisiae UUG-firefly luciferase reporter, luminescence/redox ratio;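 active = replicate mean at a twofold rise or more, about +100% in these data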;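 note: firefly luciferase made from a UUG start codon reports start codon fidelity; reporter light over untreated wells divided by growth signal over untreated wells; some hits fall short of that in this replicate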
Casp6 inh: blocks human caspase-6 cleavage activity. P55212. purified caspase-6, Z-VEID-R110 cleavage fluorescence. inhibition, % at 12.5 µM. 350,000 compounds, 0.53% hits. AID 686996;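 active = mean inhibition across replicates at least about 35%, with every replicate also reaching that limit, limit read from the data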
GSIS activator: GLuc luminescence reporter in INS-1E cells, primary screen for activators of glucose-dependent secretion of insulin | AID 743287 | INS-1E GLuc reporter insulin secretion, 2-3 h | 370,000 compounds, 0.61% hits | activation, % at 16.6 µM;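 active = lowest replicate activation of at least 40%, so every replicate reaches that level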
RAD52 inh: blocks human RAD52 DNA annealing; P43351; recombinant RAD52 DNA annealing, FRET fluorescence; inhibition, % at 18.7 µM; 360,000 compounds, 0.46% hits;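 active = every replicate showing at least 50% inhibition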
PglD inh: inhibitors of Campylobacter jejuni PglD acetyltransferase. AID 602405. purified PglD enzyme, DTNB colorimetric CoA detection. 360,000 compounds, 0.098% hits. inhibition, % at 12.5 µM; in the data active = inhibition above about 16%, passing the limit was not always enough
RAD54 branch: inhibitors of human RAD54 branch migration; inhibition, % at 10.4 µM; 360,000 compounds, 0.14% hits; Q92698; RAD54 Holliday junction branch migration, FAM/BHQ fluorescence;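 active = mean normalized replicate activity at least 40 and at least half of replicates scoring 40 or more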;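 also: inhibitors cause a drop in the FAM fluorescence signal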
Yeast UUG start-2: modulators of start codon recognition fidelity in yeast; 540 tested, under 10 active; S. cerevisiae UUG-start firefly luciferase, luminescence, 4 h; 100% means double the DMSO signal; shares compounds with Yeast UUG start-1; activation, % at 38 µM; AID 652061;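 active = signal increase whose fitted curve reaches an absolute level of 40 at a concentration under 10 µM; inactive = activity opposite to the expected increase, or the rest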
PglD inh SP: PglD (C. jejuni) inhibition confirmation; shares compounds with PglD inh; Purified C. jejuni PglD, DTNB absorbance 412 nm; 320 tested, under 10 active; AID 743156; inhibition, % at 20 µM;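 active = mean inhibition across replicates of at least 20% with every single replicate also at 20% or more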;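 also: initial rate of CoA release by acetyl transfer from AcCoA to the UDP-4-amino sugar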
DNA binder FP: counter-screen for RAD52 inhibitors: DNA binding compounds. shares compounds with RAD52 inh. 1,000 compounds, 8% hits. Salmon sperm DNA/acridine orange FP displacement. AC50, µM;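 active = fitted half-maximal concentration for signal loss at or below twice the highest dose tested, in every separate run, actives reach about 64 µM in these data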
Numbers stand for hits; 0 = inactive; - = no result given. Only some compounds are listed: those with a hit (about 1.5% of all), similar ones and a draw of the others.

SMILES | Yeast UUG start-1 | Casp6 inh | GSIS activator | RAD52 inh | PglD inh | RAD54 branch | DNA binder FP | others
O=C(N/N=C/c1c(O)n(-c2ccccc2)c(=S)[nH]c1=O)c1ccccc1 | 182.2 | 0 | 0 | 0 | 0 | 0 | - | Yeast UUG start-2=0
CN=C(SCc1ccccc1)c1c(O)n(C)c(=O)n(C)c1=O | 0 | - | - | - | 0 | 0 | -
COc1ccccc1CN1CCCC(C(=O)c2ccccc2OC)C1 (centres undefined) | active | 0 | 0 | 0 | 0 | 0 | - | Yeast UUG start-2=0
CC(C)N1CCN(Cc2cc3c(cc2Cl)OCO3)CC1CCO (centres undefined) | 0 | 0 | 0 | 0 | 0 | 0 | -
CC(C)N1CCN(Cc2cccc3c2OCO3)CC1CCO (centres undefined) | 0 | 0 | 0 | 0 | 21.3 | 0 | - | PglD inh SP=0
O=C(Nc1ccc(Cl)cc1)N1CC1 | 0 | 0 | 0 | 0 | 0 | 0 | -
Clc1ccccc1CN1CCNCC1 | 0 | 0 | 0 | 0 | 22.4 | 0 | - | PglD inh SP=0
CN1CCN(c2ccc(N)cc2Cl)CC1 | - | 0 | 0 | 85.3 | - | - | 39µM
CN1C(=O)C(=Cc2ccc(OCCN(C)c3ccccn3)cc2)C(=O)N(C)C1=O | - | 0 | 0 | 0 | - | - | -
C[C@]12CCC3C(CC[C@H]4C[C@@H](O)CC[C@]34C)C1CC[C@@H]2OC(=O)[C@H](N)CCCCN (some centres undefined) | 0 | 0 | 0 | 97.0 | 0 | 65.5 | 0
C[C@]12CC[C@H]3C(CCC4(O)CC(O)CC[C@]34C=O)C1=CC[C@H]2c1ccc(=O)oc1 (some centres undefined) | 0 | 0 | 0 | 0 | 0 | 0 | -
COc1cc2c(ccc3c4cc(OC)c(OC)cc4c[n+](C)c23)cc1O | - | 0 | - | 97.5 | - | - | 20.9µM
NC(N)=Nc1ccc2[nH]c3c(c2c1)C[C@@]1(O)[C@H]2Cc4ccc(O)c5c4[C@@]1(CCN2CC1CC1)C3O5 (some centres undefined) | 0 | 0 | 0 | 52.8 | 0 | 0 | 0
Oc1ccc2c3c1O[C@H]1c4[nH]c5ccccc5c4C[C@@]4(O)[C@@H](C2)N(CC2CC2)CC[C@]314 | 0 | 0 | - | 0 | 0 | 0 | -
COC(=O)C1=C(c2cccc(OCc3ccccc3)c2)C[C@@H]2CC[C@H]1N2C(=O)NCc1ccc(OC)cc1 | 0 | 0 | 0 | 0 | 0 | 0 | -
Nc1ccc(CC(N)c2csc(Nc3ncccn3)n2)cc1 (centres undefined) | 0 | 0 | 0 | 86.8 | 0 | 0 | 0
CCCC(C)C1(CC)C(=O)NC(=O)N=C1N (centres undefined) | - | 0 | 0 | 0 | - | - | -
COc1ccc(-n2c(-c3ccccc3Br)nc3ccccc3c2=O)cc1 | 0 | 0 | 0 | 0 | 0 | 0 | -
CC1CCCCN1Cc1c[nH]c2ccccc12 (centres undefined) | 0 | 0 | - | 0 | 0 | 0 | -
CCN(CC)c1ccc(CN(C)CCc2ccc(OC)c(OC)c2)cc1 | 0 | - | 0 | - | 0 | 0 | -
COc1ccc(CC2=NCCc3cc(OC)c(OC)cc32)cc1OC | 0 | - | 0 | 57.0 | 0 | 0 | 0
CC1CN2C(=O)C1(c1ccccc1)C(=O)NC2=S (centres undefined) | 0 | 0 | 0 | 0 | 0 | 0 | -
Cc1ccc2c(C)c3ccc4ccccc4c3c[n+]2c1 | - | 0 | - | 93.5 | - | - | 13.5µM
Cc1[nH]c2ccc(O)cc2c1CCN | 0 | - | - | 80.9 | 0 | 0 | 0
COc1ccc(/C=N\N=C(N)N)cc1 | - | 0 | 0 | 0 | - | - | -
NC(N)=N/N=C/c1ccc(N(c2ccccc2)c2ccccc2)cc1 | 0 | 63.1 | 320.8 | 88.7 | 0 | 0 | 0
NC1(C(=O)O)CCCc2ccc(N(CCCl)CCCl)cc21 (centres undefined) | 0 | 0 | - | 61.3 | 0 | 0 | 0
CN1CCN(CCOC2c3ccccc3CSc3ccc(Cl)cc32)CC1 (centres undefined) | 0 | - | 0 | - | 0 | 0 | -
CCN(CC)C(=O)c1ccc(NC(=O)c2cccc(C(F)(F)F)c2)cc1 | 0 | 0 | 0 | 0 | 0 | 0 | -
